Measured values from PMC7534037.

What was measured:
[1] = system: primary chicken kidney cells (cKC); details: up to 20 μM; 72 h; luminescent ATP assay
[2] = human; following oral administration; active form of drug; ref He et al., 1999; cited from earlier work

## oseltamivir carboxylate
[1]
  cell viability of cKC: did not alter the cKC cell viability
[2]
  amount excreted in urine: > 80%
